Legend:
[1] = tested on: CMKLR1 R178^4.64A; assay: Ca^2+ flux assay, CMKLR1 variant R178^4.64A; format: cell-based, human
[2] = tested on: CMKLR1 R178^4.64K; assay: Ca^2+ flux assay, CMKLR1 variant R178^4.64K; format: cell-based, human
[3] = tested on: CMKLR1 R178^4.64Q; assay: Ca^2+ flux assay, CMKLR1 variant R178^4.64Q; format: cell-based, human
[4] = tested on: CMKLR1 R224^5.42A; assay: Ca^2+ flux assay, CMKLR1 variant R224^5.42A; format: cell-based, human
[5] = tested on: CMKLR1 R224^5.42Q; assay: Ca^2+ flux assay, CMKLR1 variant R224^5.42Q; format: cell-based, human
[6] = tested on: CMKLR1 Y276^6.51A; assay: Ca^2+ flux assay, CMKLR1 variant Y276^6.51A; format: cell-based, human; conditions: poor cell surface expression of the variant
[7] = target: T1, wild-type human CMKLR1 (chemokine-like receptor 1), cryo-EM construct with the N-terminal peptide of the … (Homo sapiens (Human), UniProt P07550); assay: cryo-EM, co-purification/SEC; chemerin9 agonist; Gβ1γ2 and scFv16 present; apyrase (nucleotide-free); dominant-negative Gαi1 (S47N, G203A, E245A, A326S); co-expressed and purified as a complex in LMNG/CHS
T1 chain: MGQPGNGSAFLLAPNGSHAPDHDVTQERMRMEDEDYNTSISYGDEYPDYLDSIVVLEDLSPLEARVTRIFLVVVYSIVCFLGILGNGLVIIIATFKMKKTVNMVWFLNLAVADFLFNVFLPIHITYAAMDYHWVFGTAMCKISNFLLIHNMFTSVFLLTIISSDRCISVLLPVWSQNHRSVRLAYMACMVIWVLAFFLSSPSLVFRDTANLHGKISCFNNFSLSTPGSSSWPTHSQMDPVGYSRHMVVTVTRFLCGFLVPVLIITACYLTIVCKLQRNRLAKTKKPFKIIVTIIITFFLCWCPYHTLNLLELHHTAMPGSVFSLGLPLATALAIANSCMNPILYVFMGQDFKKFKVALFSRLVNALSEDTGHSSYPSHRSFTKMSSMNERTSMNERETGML

[8] = tested on: primary human macrophages; assay: Macrophage differentiation assay, surface markers by flow cytometry (MFI fold-change); conditions: 72 hours; for CD86 MFI fold-change / CD163 MFI fold-change / CD206 MFI fold-change / HLA.DR MFI fold-change: normalized to M0 (medium), 10 ng/ml (each)

## YFPGQFAFS-NH2 [C9-NH2, carboxylate group of Ser157 changed to carboxamide]
[1]
  signaling activity in words: no activity
[2]
  signaling activity in words: no activity
[3]
  signaling activity in words: no activity
[4]
  signaling activity in words: partially rescued the loss of activity
[5]
  signaling activity in words: partially rescued the loss of activity

## YFPGQFAAS [[A8]-C9]
[6]
  activity in words: None of the mutations of H95^2.60 or Y276^6.51 rescued the activity

B1: dominant negative form of human Gαi1 (DNGαi1) (protein)
chain: TLSAEDKAAVERSKMIDRNLREDGEKAAREVKLLLLGAGESGKNTIVKQMKIIHEAGYSEEECKQYKAVVYSNTIQSIIAIIRAMGRLKIDFGDSARADDARQLFVLAGAAEEGFMTAELAGVIKRLWKDSGVQACFNRSREYQLNDSAAYYLNDLDRIAQPNYIPTQQDVLRTRVKTTGIVETHFTFKDLHFKMFDVGAQRSERKKWIHCFEGVTAIIFCVALSDYDLVLAEDEEMNRMHASMKLFDSICNNKWFTDTSIILFLNKKDLFEEKIKKSPLTICYPEYAGSNTYEEAAAYIQCQFEDLNKRKDTKEIYTHFTCSTDTKNVQFVFDAVTDVIIKNNLKDCGLF
[7]
  binding result: binds

B2: IL-10: 10 ng/ml IL-10 supplement used as M2 reference (protein, UniProt P22301 19-178, looked up)
Interleukin-10: SPGQGTQSENSCTHFPGNLPNMLRDLRDAFSRVKTFFQMKDQLDNLLLKESLLEDFKGYLGCQALSEMIQFYLEEVMPQAENQDPDIKAHVNSLGENLKTLRLRLRRCHRFLPCENKSKAVEQVKNAFNKLQEKGIYKAMSEFDIFINYIEAYMTMKIRN
[8]; replicate (donor) column 1
  CD86 MFI fold-change: 0.9059
  CD163 MFI fold-change: 1.001
  CD206 MFI fold-change: 1.0748
  HLA.DR MFI fold-change: 0.735
[8]; replicate (donor) column 2
  CD86 MFI fold-change: 0.8124
  CD163 MFI fold-change: 2.034
  CD206 MFI fold-change: 1.264
  HLA.DR MFI fold-change: 0.8861
[8]; replicate (donor) column 3
  CD86 MFI fold-change: 0.8979
  CD163 MFI fold-change: 0.4674
  CD206 MFI fold-change: 1.211
  HLA.DR MFI fold-change: 0.4678
[8]; replicate (donor) column 4
  CD86 MFI fold-change: 0.8073
  CD163 MFI fold-change: 1.009
  CD206 MFI fold-change: 0.934
  HLA.DR MFI fold-change: 0.5752
[8]; primary human macrophages, 10 ng/mL (each), vs M0, n = 4 donors
  HLA-DR expression in words: down-regulation
